Measurements as given in US8759357B2, “Inhibitors of fatty acid binding protein (FABP)” (Merck Sharp & Dohme Corp., priority 2009, dated 2014).

Chains of the proteins cited; added tags and fusions are not shown.
UniProt P15090, whole entry: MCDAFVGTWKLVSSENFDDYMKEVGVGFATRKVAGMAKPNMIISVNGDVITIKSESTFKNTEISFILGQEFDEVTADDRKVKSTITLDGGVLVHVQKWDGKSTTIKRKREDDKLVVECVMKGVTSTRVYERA
UniProt Q01469, whole entry: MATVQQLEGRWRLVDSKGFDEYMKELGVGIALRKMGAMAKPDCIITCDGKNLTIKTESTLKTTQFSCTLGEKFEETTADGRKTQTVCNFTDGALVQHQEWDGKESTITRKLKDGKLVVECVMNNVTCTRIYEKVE

Key:
FABP4 = FABP4 (Homo sapiens, UniProt P15090); experiment: TdF (Temperature Dependence Fluorescence) thermal shift assay for FABP4; conditions: read-out: FABP4 TdF Kd; 3 μM protein; 15, 50 or 100 μM compound; Kd from ΔTm
Excerpt: TdF (Temperature Dependence Fluorescence) Assay for FABP3 and FABP4
The SAR (Structure Activity Relationship) for FABP3 and FABP4 ligands covered by this invention was interrogated using the TdF (Temperature Dependence Fluorescence) assay or best known as thermal shift assay (M. W. Pantoliana et al, J. Biomol. Screen 6 (2001) 429-440). The TdF assay was mainly conducted in the 96-well based CHROMO-4 real time fluorescence plate reader (BioRad). The Sypro Orange (Sigma-Aldrich), environmentally sensitive fluorescence dye, was used to monitor the protein folding-unfolding transition. […]
The compound of interest was first prepared in DMSO stock (typical concentration: 10 mM). […] The fluorescence signals were acquired with excitation and emission wavelengths centered at 490 and 560 nm respectively. […]
The derivation of TdF-based ligand binding affinity constant (Kd) followed closely those previously formulated by Brandts and Lin, Biochemistry 29 (1990) 6927-6940. In brief, the binding constant of the ligand at the Tm is expressed as below:
[formula] where T0 is the midpoint of unfolding for unliganded protein and Tm is the midpoint of unfolding in presence of ligand. […] The ΔCPu is proportional to the size of protein and is an approximate quantity in the above equation (empirically, ΔCpu=(MW of protein/115)*14 cal/mol*K). […]

FABP5 = FABP5 (Homo sapiens, UniProt Q01469); experiment: TdCD (Temperature-Dependent Circular Dichroism) assay for FABP5; conditions: read-out: FABP5 TdCD Kd; compounds at 50 μM and 25 μM; Kd calculated at T=20° C.; 50% uncertainty
Excerpt: [formula] (see Brandts et al and Mayhood et al, shown above) where ΔHL (T) is the van't Hoff enthalpy of ligand binding at temperature T and ΔCpL is the heat capacity upon ligand binding. For simplicity, the ΔCpL and ΔHL (T) were set to zero and −7 kcal/mol respectively. (The ΔCpL accounts for minimal portion of total protein-ligand binding energetics and is therefore set to zero (For example, see Hossein Naghibi et al, Proc. Natl. Acad. Sci. 92, 5597-5599 (1995), where ΔCpL was estimated to ˜2% of ΔHL at 25° C. obtained from calorimetric study of binding Rnase A and 2′-CMP)). TdCD (Temperature-Dependent Circular Dichroism) Assay for FABP3/4/5
JASCO 810 spectropolarimeter was used to measure Circular Dichroism (CD) spectra and temperature-dependent protein unfolding profiles. The instrument is equipped with a 6-cell piezoelectric temperature controller. Ellipticity was monitored at 226 nm as a function of temperature with a 1 mm path length cell. […]
Briefly, the To (midpoint of unfolding for the unliganded protein) was calculated from best fit of the unfolding data to the equation below: […]
Based on estimates for enthalpy of binding, ΔHL (estimated to be −7 kcal/mol) and ligand binding heat capacity ΔCpL (set to be zero), the ligand binding association constant (KL) at temperature T=20° C. were calculated as below. […]

pKd (FABP4): 5.30 to 6.70 | pKd (FABP5): 4.00 to 6.30
SMILES: CN(Cc1cccc(Cl)c1)Cc1cc(=O)n2nc(-c3ccccc3)nc2[nH]1

pKd: −log10 of the molar value.
